Values of other authors, collected in patent US9611289B2, “Farnesoid X receptor modulators” (Intercept Pharmaceuticals, Inc., priority 2013, dated 2017).

Chains of the proteins cited; added tags and fusions are not shown. Lines headed by an entry give the natural chain unless they say otherwise; changes in a name come on top.
UniProt Q12809: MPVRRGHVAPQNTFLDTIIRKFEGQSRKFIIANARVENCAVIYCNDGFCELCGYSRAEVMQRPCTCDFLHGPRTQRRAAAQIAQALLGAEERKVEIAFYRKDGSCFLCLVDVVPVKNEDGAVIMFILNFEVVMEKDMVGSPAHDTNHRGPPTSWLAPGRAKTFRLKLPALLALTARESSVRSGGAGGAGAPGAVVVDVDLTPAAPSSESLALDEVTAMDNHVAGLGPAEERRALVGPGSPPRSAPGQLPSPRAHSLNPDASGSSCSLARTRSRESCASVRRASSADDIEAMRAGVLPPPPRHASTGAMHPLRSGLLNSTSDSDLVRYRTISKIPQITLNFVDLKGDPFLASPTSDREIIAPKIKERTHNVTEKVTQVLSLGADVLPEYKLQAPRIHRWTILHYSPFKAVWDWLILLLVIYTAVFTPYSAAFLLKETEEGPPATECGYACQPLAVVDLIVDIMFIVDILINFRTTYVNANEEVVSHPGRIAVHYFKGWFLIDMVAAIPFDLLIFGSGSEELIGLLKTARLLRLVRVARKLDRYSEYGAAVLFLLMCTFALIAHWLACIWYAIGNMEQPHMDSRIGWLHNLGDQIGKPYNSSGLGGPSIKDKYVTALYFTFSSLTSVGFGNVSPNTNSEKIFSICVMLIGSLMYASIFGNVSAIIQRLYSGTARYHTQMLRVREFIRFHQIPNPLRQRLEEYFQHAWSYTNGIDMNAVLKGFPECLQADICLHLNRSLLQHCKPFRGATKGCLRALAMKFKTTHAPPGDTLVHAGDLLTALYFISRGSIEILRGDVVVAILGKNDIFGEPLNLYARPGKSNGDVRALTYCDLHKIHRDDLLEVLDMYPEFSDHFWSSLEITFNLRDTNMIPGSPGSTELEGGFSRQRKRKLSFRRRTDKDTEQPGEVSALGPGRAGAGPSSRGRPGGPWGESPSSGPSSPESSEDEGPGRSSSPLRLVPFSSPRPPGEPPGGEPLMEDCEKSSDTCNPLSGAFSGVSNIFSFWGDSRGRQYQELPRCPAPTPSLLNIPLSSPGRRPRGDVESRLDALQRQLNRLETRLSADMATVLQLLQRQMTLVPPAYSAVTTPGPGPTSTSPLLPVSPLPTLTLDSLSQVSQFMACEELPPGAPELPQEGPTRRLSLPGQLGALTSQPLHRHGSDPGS

Tests used:
hERG channel = hERG channel (Homo sapiens, UniProt Q12809); details: reported values; read-out: Radioligand* IC50; cited from earlier work
hERG potassium channel = hERG potassium channel (Homo sapiens, UniProt Q12809); details: Table 6 assay validation (Dorn et al. 2005); read-out: FP IC50; cited from earlier work

## CC(C)COCC(CN(Cc1ccccc1)c1ccccc1)N1CCCC1 (centres unmarked) [Bepridil]
hERG channel
  IC50: 170 nM
hERG potassium channel
  IC50: 210 nM
